According to patent US20200315998A1, “COMPOSITION FOR IMPROVING INTESTINAL BARRIER FUNCTION” (SUNTORY HOLDINGS LIMITED, priority 2017, published 2020):

Tested on: Caco-2 cells
Assay: Evaluation of intestinal barrier function improvement: TEER reduction suppression in Caco-2 monolayer with inflammatory cytokines (TNFα, IL-1β, IFNγ)
Type: cell-based, human
Details: combined use of phenolic compound and gallic acid, each 10 μM
Text: The intestinal barrier function improvement effect is indicated by, for example, increase in the electrical resistance value (transepithelial electric resistance: TEER) of the intestinal epithelial cells or suppression of the decrease in the TEER. A substance increasing the TEER or suppressing the decrease thereof has the action of normalizing or strengthening the tight junction in the intestinal epithelial cells. The intestinal barrier function improvement effect is also indicated by decrease in the amount of a substance permeating from the intestinal side of the intestinal epithelial cells to the inside of the body. […] If the addition of a test substance suppresses the decrease in the TEER as compared with the case where the substance is not added, the test substance can be evaluated to have the intestinal barrier function improvement effect.
Caco-2 cells were cultured for three weeks at 37° C. in Transwell (manufactured by Millicell Corporation) using DMEM (Dulbecco's modified Eagle's medium). […] Then, the transepithelial electrical resistance (TEER) of Caco-2 monolayer cells was measured by Millicell-ERS (manufactured by Millipore Corporation). Cells (TEER≥1000 Ω·cm^2) determined that a sufficient tight junction was formed were selected, and used for the next screening. […]

With catechin gallate the “Synergistic effect (M.V./T/V/)” value was 2.3 and the “TEER reduction suppression ratio (%) +gallic acid (actual measurement value) (M.V.)” value was 101%.
